Test system: ARPE-19 monolayers
Assay: Suppression of gHSA-induced reduction of TEER in confluent ARPE-19 monolayers
Type: cell-based
Conditions: 100 μg/mL, 6 hours, no pretreatment

glycated human serum albumin [gHSA]
Maximum reduction in resistance (TEER): 23±1.7%

From patent US11400070B2, “Methods of treating retinal diseases” (Alimera Sciences, Inc., priority 2018, dated 2022)
